# FGF22 binding: FGF22 (human) thermal shift binding. 340,000 compounds, 1.5% hits. AID 651658. recombinant FGF22 thermal shift, SYPRO orange fluorescence; percent of sucrose octasulfate shift, DMSO zero. activity (Tm shift, normalised), % at 9.99 µM. Q9HCT0;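 active = mean Tm shift, scaled 0 neutral to 100 positive control, at about 1.3% or above, every replicate too, limit read from the data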
# ERp5 block: ERp5 (human) disulfide isomerase inhibition; Q15084; ERp5 insulin aggregation, absorbance 650 nm, 90 min; inhibition, % at 9.99 µM; 350,000 compounds, 0.05% hits; AID 651711;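 active = mean replicate inhibition above about 25%, with every replicate also reaching it, limit read from the data, passing the limit was not always enough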
# PglD inh: inhibitors of Campylobacter jejuni PglD acetyltransferase. 360,000 compounds, 0.098% hits. purified PglD enzyme, DTNB colorimetric CoA detection. inhibition, % at 12.5 µM; in the data active = inhibition above about 16%, passing the limit was not always enough
# PDI turbidity: inhibitors of human protein disulfide isomerase; P07237; PDI insulin aggregation turbidity, A650, 90 min; inhibition, % at 10 µM; 350,000 compounds, 0.052% hits; AID 588391;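 active = mean inhibition across replicates of 30% or more, whatever share of single replicates reach that level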
# UUG fidelity: modulators of start codon recognition fidelity in yeast; AID 602363; activity score, % at 18.7 µM; S. cerevisiae UUG-firefly luciferase reporter, luminescence/redox ratio; actives 0.13% (n = 350,000);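 active = replicate mean at a twofold rise or more, about +100% in these data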;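 note: firefly luciferase made from a UUG start codon reports start codon fidelity; reporter light over untreated wells divided by growth signal over untreated wells; some hits fall short of that in this replicate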
# ARNT-TACC3 inh: disrupts binding between human ARNT and TACC3 | inhibition, % at 9.99 µM | 390,000 compounds, 0.66% hits | AlphaScreen His-ARNT PAS-B/GST-TACC3 binding, luminescence; TACC3 fragment carries E629A point mutation;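 active = mean inhibition of replicates at least 50% and at least half of replicates each reaching 50%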;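 also: 0% = complete ARNT plus TACC3 wells and 100% = ARNT alone without TACC3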
# Starred values were filed as active, the others as inactive; nt = no result. Compounds with a hit are over-represented: about 1.9% of the library has one in this group of screens.
SMILES,FGF22 binding,ERp5 block,PglD inh,PDI turbidity,UUG fidelity,ARNT-TACC3 inh
CN1C(=O)c2cc(NC(=O)Nc3ccc(Cl)cc3)ccc2OC[C@H]2O[C@H](CC(=O)O)CC[C@H]21,nt,-3,1,nt,-3,-9
COc1ccc([Si](C)(C)[C@H]2[C@H](CCO)O[C@@]3(C(=O)N(Cc4ccccc4)c4ccc(N5CCC5=O)cc43)[C@@H]2C)cc1,-1,0,1,nt,-3,-10
O=S(=O)(O)c1ccc(NN=Cc2ccccc2O)cc1,44*,-5,0,2,5,2
C[C@H](CO)N1C[C@H](C)[C@@H](CN(C)C(=O)CCC(F)(F)F)OCCCC[C@H](C)Oc2ccc(NS(=O)(=O)c3ccc(F)cc3)cc2C1=O,0,3,0,nt,11,10
CC(CCC(C)C(C)(C)C)[C@@H]1CC[C@H]2C3C[C@H](OS(O)(=S)=S)[C@H]4C[C@H](OS(O)(=S)=S)[C@@H](OS(O)(=S)=S)C[C@]4(C)[C@H]3CC[C@]12C (some centres undefined) (tested in a mixture with another compound),nt,nt,0,7,-30,55*
COc1ccc(C)cc1Nc1n[n+](-c2ccccc2)c(-c2ccc(C(=O)O)cc2)s1,44*,-2,3,-4,-13,-2
C[C@@H]1CN([C@H](C)CO)C(=O)c2cc(NC(=O)Nc3cccc4ccccc34)ccc2O[C@H]1CN(C)S(=O)(=O)c1ccccc1,0,1,-1,nt,2,8
COCCCNC(=O)CSc1nc2c(sc(=S)n2-c2cc(Cl)ccc2OC)c(=O)[nH]1,3.0*,-6,1,-11,-1,-6
CCC(C)NC(=O)CSc1nc2c(sc(=S)n2-c2cc(Cl)ccc2OC)c(=O)[nH]1 (centres undefined),0,2,0,-5,-2,-5
Cc1ccc(S(=O)(=O)N[C@H]2CC[C@H](CCNC(=O)C3CC3)O[C@H]2CO)cc1,0,-4,-1,nt,-17,-5
CO[C@H]1CN(C)C(=O)c2cccc(C#N)c2OCC[C@@H]2CC[C@H](OC)[C@@H](CN(C)C(=O)[C@H]1C)O2,0,2,-1,nt,nt,28
C[C@@H]1CN([C@@H](C)CO)C(=O)c2cc(NC(=O)Nc3ccc(F)cc3)ccc2O[C@@H](C)CCCCO[C@@H]1CN(C)C(=O)CCCN(C)C,nt,-2,0,nt,11,-4
O=C1CCCC/C1=C\Nc1ccc(Cl)cn1,nt,nt,6,-2,-9,2
Cc1ccc(N/C=C2\CCCCC2=O)nc1,43*,2,1,1,-11,-2
O=C(C[C@H]1CC[C@@H]2[C@H](COC[C@@H](O)CN2CC2CCCC2)O1)NCc1ccc(Cl)cc1,nt,-1,nt,nt,nt,nt
CCOC(=O)C1Cn2c(nc3c(c2=O)C2(CCCC2)Cc2ccccc2-3)S1 (centres undefined),nt,nt,-7,-22,-2,27
O=C(O)C1Cn2c(nc3c(c2=O)C2(CCCC2)Cc2ccccc2-3)S1 (centres undefined),43*,0,1,7,5,-10
COc1ccccc1CNC(=O)C(C)Oc1ccccc1 (centres undefined),0,-1,6,7,3,3
COCCNC(=O)C(C)Oc1ccccc1 (centres undefined),43*,0,-3,-7,1,nt
CCN(CC)C(=O)Cn1cc(C(=O)C(=O)N2CC=C(c3ccccc3)CC2)c2ccccc21,43*,-3,nt,6,nt,-4
O=C(COc1ccc(S(=O)(=O)NC2CCCCC2)cc1)NC1CCCC1,43*,1,-2,-3,8,3
C[C@H](CO)N1C[C@H](C)[C@H](CN(C)S(=O)(=O)c2ccc(F)cc2)Oc2c(NS(=O)(=O)c3ccccc3)cccc2C1=O,0,nt,-1,nt,4,1
CO[C@H]1CC[C@@H]2CCN(C)C(=O)[C@H](C)N(C)C(=O)c3cc(C#N)ccc3OC[C@@H]1O2,0,3,1,nt,nt,2
C=CCNc1nc2c3ccccc3n(C(C)=O)c2s1,nt,nt,-4,-11,-16,active
CC(=O)n1c2ccccc2c2nc3ccccc3nc21,nt,nt,3,15,-16,-6
SMILES,FGF22 binding,ERp5 block,PglD inh,PDI turbidity,UUG fidelity,ARNT-TACC3 inh
CO[C@@H]1CN(C)C(=O)c2ccc(NC(=O)c3ccc(F)cc3)cc2OC[C@@H](C)N(C)C[C@H]1C,nt,7,-4,nt,1,5
C=CCn1c(=O)/c(=C/c2ccc(C)o2)s/c1=C(/C#N)C(=O)c1ccccc1,nt,nt,4,3,16,7
C=CCn1c(=O)/c(=C\c2ccccn2)s/c1=C(/C#N)C(=O)NCC1CCCO1 (centres undefined),43*,2,nt,-2,nt,2
Cc1n[nH]c(=O)nc1N/N=C/c1ccco1,44*,1,nt,12,-29,53*
COC(=O)c1ccccc1OC(=O)c1cccnc1,0,-3,-1,-2,-18,-8
O=C(Oc1ccccc1C(=O)Oc1ccccc1)c1cccnc1,43*,14,nt,-9,nt,-2
C/C(=N\Nc1ccc(Cl)c(C(=O)O)c1)c1ccccn1,0,1,nt,-1,nt,14
C=CCNC(=S)N/N=C(\C)c1ccccn1,nt,nt,4,-1,-49,59*
CC(=NNC(=S)Nc1ccccc1Cl)c1ccccn1,0,1,nt,4,nt,87*
C/C(=N\Nc1ncc(Cl)cc1Cl)c1ccccn1,nt,nt,nt,2,nt,73*
COCCN(C(=O)CCc1nnc(CCc2c[nH]c3ccccc23)o1)C(C)C,44*,2,nt,14,nt,-3
CC1CCCCN1C(=O)CCc1nnc(Cc2c[nH]c3ccccc23)o1 (centres undefined),44*,2,nt,15,nt,-5
CCC1CCCCN1C(=O)CCc1nnc(Cc2c[nH]c3ccccc23)o1 (centres undefined),0,1,nt,10,nt,14
CC1CCCCN1C(=O)COC(=O)Cc1c[nH]c2ccccc12 (centres undefined),43*,2,3,-1,-15,-2
O=C(NC1CCCC1)[C@@H]1[C@@H](CO)[C@@H]2Cn3c(ccc(-c4ccncc4)c3=O)[C@@H]2N1CC1CC1,0,5,0,nt,nt,5
COc1ccccc1NC(=O)N[C@@H]1CC[C@@H](CCn2cc(-c3ccccc3)nn2)O[C@H]1CO,0,-2,4,nt,5,8
COc1cccc(/C=C/C(=O)OCC(=O)NC2CCCCCCC2)c1,26*,3,-1,12,-8,-2
CCOc1nc2ccccc2cc1C=O,43*,-1,nt,10,nt,-1
COc1ccc(Nc2nc3ccccc3s2)cc1,2.6*,-1,nt,-5,nt,-2
C/C(O)=C(/C=NCC(=O)O)C(=O)Nc1nccs1,43*,6,nt,8,nt,nt
C/C(=C\c1ccccc1)C(=O)Nc1nccs1,0,6,nt,0,nt,0

# Random excerpt: 6 records from the list, in no set order.
SMILES,FGF22 binding,ERp5 block,PglD inh,PDI turbidity,UUG fidelity,ARNT-TACC3 inh
CCOc1nc2ccccc2cc1C=O,43*,-1,nt,10,nt,-1
CC1CCCCN1C(=O)CCc1nnc(Cc2c[nH]c3ccccc23)o1 (centres undefined),44*,2,nt,15,nt,-5
COC(=O)c1ccccc1OC(=O)c1cccnc1,0,-3,-1,-2,-18,-8
CO[C@@H]1CN(C)C(=O)c2ccc(NC(=O)c3ccc(F)cc3)cc2OC[C@@H](C)N(C)C[C@H]1C,nt,7,-4,nt,1,5
Cc1n[nH]c(=O)nc1N/N=C/c1ccco1,44*,1,nt,12,-29,53*
CC(=NNC(=S)Nc1ccccc1Cl)c1ccccn1,0,1,nt,4,nt,87*

# Compound activity from PubChem.
